The chains behind the UniProt entries cited, without tags or fusion partners.
UniProt P13945, whole entry: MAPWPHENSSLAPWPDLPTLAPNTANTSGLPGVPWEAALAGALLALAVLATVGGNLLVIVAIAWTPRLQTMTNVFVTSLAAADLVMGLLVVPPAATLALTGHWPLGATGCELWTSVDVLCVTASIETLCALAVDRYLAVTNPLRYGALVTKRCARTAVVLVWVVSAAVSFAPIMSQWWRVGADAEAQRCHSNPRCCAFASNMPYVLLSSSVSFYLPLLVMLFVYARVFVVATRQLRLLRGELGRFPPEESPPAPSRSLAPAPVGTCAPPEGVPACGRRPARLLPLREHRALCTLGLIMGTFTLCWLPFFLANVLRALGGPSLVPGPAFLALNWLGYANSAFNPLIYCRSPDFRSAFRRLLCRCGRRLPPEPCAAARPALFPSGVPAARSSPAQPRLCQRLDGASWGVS

The target of the assay is human β3 adrenergic receptor (Homo sapiens, UniProt P13945). In words: Beta-3 agonist in vitro functional assay (cAMP production, LANCE, transfected CHO cells). The settings on record: read-out: Human β3 agonist functional activity, Table 3, CHO cells with cloned β3 receptor, ligands titrated 10^-12 M to 10^-5 M. In general terms: cAMP levels reflect the balance of adenylyl cyclase and phosphodiesterase activity.
In the case of `CN(C[C@@H]1CCN(c2ccccc2)C1)C(=O)c1ccc(C[C@@H]2CC[C@H]([C@H](O)c3ccccc3)N2)cc1`, the EC50 is 0.1 to 0.999 µM.

Regarding `C=CCN(C(=O)c1ccc(C[C@@H]2CC[C@H]([C@H](O)c3ccccc3)N2)cc1)[C@H]1CCS(=O)(=O)C1`, the EC50 was 0.01 to 0.0999 µM.

`CCc1ccccc1OCCCN(C)C(=O)c1ccc(C[C@@H]2CC[C@H]([C@H](O)c3ccccc3)N2)cc1`: the EC50 was in the range of 0.1 to 0.999 µM.

Consider `CC(C)CN(Cc1ccccn1)C(=O)c1ccc(C[C@@H]2CC[C@H]([C@H](O)c3ccccc3)N2)cc1`, for which the EC50 is 0.01 to 0.0999 µM.

Consider `CN(C[C@@H]1COc2ccccc2O1)C(=O)c1ccc(C[C@@H]2CC[C@H]([C@H](O)c3ccccc3)N2)cc1`, for which the EC50 lay in the range of 0.001 to 0.0099 µM.

As for `CCN(C[C@H]1OCCc2ccccc21)C(=O)c1ccc(C[C@@H]2CC[C@H]([C@H](O)c3ccccc3)N2)cc1`, the EC50 fell in the range of 0.01 to 0.0999 µM.
